# Experimental data published in ChEMBL document CHEMBL1131425 (J Med Chem, 1998).
# Chains of the proteins cited; added tags and fusions are not shown.
# UniProt P14842, whole entry: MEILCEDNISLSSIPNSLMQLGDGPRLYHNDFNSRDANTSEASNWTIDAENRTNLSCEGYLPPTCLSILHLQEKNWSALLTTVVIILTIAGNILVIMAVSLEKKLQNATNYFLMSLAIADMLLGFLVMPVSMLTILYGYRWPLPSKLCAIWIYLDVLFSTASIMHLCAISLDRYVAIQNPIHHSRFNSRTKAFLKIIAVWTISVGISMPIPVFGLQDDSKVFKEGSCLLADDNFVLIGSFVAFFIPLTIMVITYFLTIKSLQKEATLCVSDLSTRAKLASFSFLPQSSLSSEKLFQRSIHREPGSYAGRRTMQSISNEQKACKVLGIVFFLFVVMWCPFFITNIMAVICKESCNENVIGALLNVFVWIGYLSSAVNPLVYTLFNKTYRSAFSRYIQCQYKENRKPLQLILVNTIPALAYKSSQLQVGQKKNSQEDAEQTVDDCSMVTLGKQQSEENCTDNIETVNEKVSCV
# How the values were obtained:
# [1] = target: 5-hydroxytryptamine receptor 2A (Rattus norvegicus, UniProt P14842); assay: Binding affinity against rat 5-hydroxytryptamine 2A receptor in NIH3T3 cells.; assay type: cell-based
# [2] = target: T1, 5-hydroxytryptamine receptor 2C (Rattus norvegicus, UniProt P08909); assay: Binding affinity against rat 5-hydroxytryptamine 2C receptor in A-9 cells.; assay type: cell-based
# T1 sequence (P08909 whole entry): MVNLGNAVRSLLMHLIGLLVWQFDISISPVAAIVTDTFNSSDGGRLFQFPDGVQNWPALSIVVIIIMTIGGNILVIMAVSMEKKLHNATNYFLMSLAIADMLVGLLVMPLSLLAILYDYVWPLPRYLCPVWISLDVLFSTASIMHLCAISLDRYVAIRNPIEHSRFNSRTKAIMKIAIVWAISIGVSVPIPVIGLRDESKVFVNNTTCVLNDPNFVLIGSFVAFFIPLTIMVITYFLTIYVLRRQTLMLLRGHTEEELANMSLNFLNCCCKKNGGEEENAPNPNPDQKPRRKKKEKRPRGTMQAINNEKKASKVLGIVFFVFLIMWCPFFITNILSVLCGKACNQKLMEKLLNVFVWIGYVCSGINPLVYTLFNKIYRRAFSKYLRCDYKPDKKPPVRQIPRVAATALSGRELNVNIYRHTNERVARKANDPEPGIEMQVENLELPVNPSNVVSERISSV
# Method in brief: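 A-9 cells expressing rat 5-HT2C grown to confluence, homogenized membranes (~10 μg protein) in pH 7.4 Tris/MgCl2/EDTA buffer; 1 nM [3H]mesulergine displaced by test agent, nonspecific defined by 10 μM mesulergine; 30 min at 37 °C, filtration, scintillation counting; Ki from three or more determinations.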
compound,measurement,setting,value
O=C(CCCN1CCC2(CC1)C(=O)NCN2c1ccccc1)c1ccc(F)cc1 [SPIPERONE],Ki,[1],1.8 nM
same,Ki,[2],1600 nM
